{"source": "patent US20260382581A1", "about": "“COMPOSITIONS COMPRISING CYTISINE IN THE TREATMENT AND/OR PREVENTION OF ADDICTION IN SUBJECTS IN NEED THEREOF” (published 2026)", "origin": "cited, not measured here", "key": {"[1]": {"system": "neuronal alpha4, beta2 (α4β2) receptors", "details": "cited from earlier work"}, "[2]": {"system": "smokers", "details": "EAGLES, U.S. region; listed as Varenicline; cited from earlier work"}, "[3]": {"system": "smokers", "details": "in vivo; cited from earlier work"}}}
{"smiles": "CN1CCCC1c1cccnc1", "note": "(stereo not drawn)", "values": [{"measurement": "binding to neuronal α4β2 receptors", "setting": "[1]", "result": "bind strongly and preferentially"}]}
{"smiles": "c1cnc2cc3c(cc2n1)[C@@H]1CNC[C@H]3C1", "values": [{"measurement": "CAR weeks 9-24 (95% CI)", "setting": "[2]", "result": "16.1 (14.0-18.4) %"}, {"measurement": "comparative efficacy in smoking cessation", "setting": "[3]", "result": "more effective than single NRT and bupropion"}]}
